Values joined by “and” are separate entries in the source; they are usually repeats but may differ in a detail not shown here. Equal values may be shown once.
Biological target: SARS-CoV-2 M^pro (Severe acute respiratory syndrome coronavirus 2, UniProt P0DTD1)
Format: binding

CCN(CCO)CCCC(C)Nc1ccnc2cc(Cl)ccc12 (stereo not shown) [hydroxychloroquine]
Tm of SARS-CoV-2 Mpro: 51.1 °C and 51.2 °C

Reference: patent US20210330661A1 (China Medical University, priority 2020, published 2021)
